Test system: ACE2
Assay: Cytokine screening for stimulation of Ace2 in HCEC (dd-PCR)
Format: cell-based, human
Conditions: cytokine at 1, 10, and 100 ng/mL, 6 hours

Substance: IL2
- Ace2 expression (dd-PCR): no significant increase

Source: patent publication US20240041813A1, “VERY-LONG-CHAIN POLYUNSATURATED FATTY ACIDS, ELOVANOID HYDROXYLATED DERIVATIVES, AND METHODS OF USE” (priority 2020, published 2024)
